What was measured:
[1] = target: σ^70, the major σ initiation factor of Escherichia coli (wild-type) (UniProt P00579); test: trypsin protection of the β flap-tip, 2-fold molar excess σ70, gel quantification; rate without σ70 printed as 9.2 ± 0.1
[2] = target: σ^70, the major σ initiation factor of Escherichia coli (wild-type) (UniProt P00579); test: trypsin protection of the β flap-tip, 2-fold molar excess σ70, gel quantification; rate without σ70 printed as 12 ± 2*

Substance | β cleavage rate + σ^70 [1] [s⁻¹] | β cleavage rate + σ^70 [2] [s⁻¹]
wild-type Escherichia coli RNA polymerase (core enzyme, α, β, β′ subunits) | 0.0016 | 
Escherichia coli RNA polymerase bearing the LQ901 substitution in the β subunit |  | 0.01
